This is an account of results in patent publication US20250360236A1, “PROSTATE SPECIFIC MEMBRANE ANTIGEN (PSMA) LIGANDS” (Deutsches Krebsforschungszentrum Stiftung des öffentlichen …, priority 2022, published 2025).

Structures are written as SMILES.

One series relates to PSMA+-cells (LNCaP). The series can be described thus: Cell surface binding and internalization experiments. It counts as cell-based. The following applies: 68Ga-labeled compounds, 30 nM, 45 min 37 °C, specific uptake by blockage with 500 μM 2-PMPA, mean ± SD n=3. The method, then: For internalization experiments, 10^5 cells per well were seeded in poly-L-lysine coated 24-well cell culture plates 24 h before incubation. After washing, the cells were incubated with 30 nM of the radiolabeled compound for 45 min at 37° C. Cellular uptake was terminated by washing 3 times with 1 mL of ice-cold PBS. To remove surface-bound radioactivity, cells were incubated twice with 0.5 mL glycine-HCl in PBS (50 mM, pH=2.8) for 5 min. The cells were washed with 1 mL of ice-cold PBS and lysed using 0.3 N NaOH (0.5 mL). The surface-bound and the internalized fractions were measured in a gamma counter. The cell uptake was calculated as percent of the initially added radioactivity bound to 10^5 cells [% ID/10^5 cells].

A further series in a line: in vivo. The arrangement: species or system BALB/c nu/nu mice. The following applies: male, BALB/c nu/nu, mouse, iv, 0.06 nmol, total radioactivity, Organ distribution.
A further series deals with LNCaP xenograft tumors. Briefly: in vivo. Details: species or system BALB/c nu/nu mice. The following applies: mouse.
A further series relates to LNCaP tumor. Briefly: Small-animal PET/MR imaging. It counts as in vivo, mice. The following applies: 0.5 nmol 68Ga-labeled, dynamic PET up to 60 min p.i. The method, then:
(§1) For imaging studies, mice were anesthetized (2% isoflurane) and 0.5 nmol of the ^68Ga-labeled compound in 0.9% NaCl (pH 7) were injected into the tail vein. PET imaging was performed with μPET/MRI scanner (BioSpec 3T, Bruker) with a dynamic scan for 60 min. The images were iteratively reconstructed (MLEM 0.5 algorithm, 12 iterations) and were converted to SUV images. Quantification was done using a ROI (region of interest) technique and data in expressed in time activity curves as SUVbodyweight. Mice were sacrificed after PET/MR imaging and optical imaging of the subcutaneous tumor and organs of interest was performed with the Odyssey CLx system (LI-COR Biosciences, excitation wavelength 700 nm). All animal experiments complied with the current laws of the Federal Republic of Germany.

The test system of another series is LNCaP (PSMA+) tumor. Briefly: Optical imaging of dissected tumor, LNCaP. It counts as in vivo, BALB/c nu/nu mice. The following applies: 0.5 nmol 68Ga-labeled BP-2, 2 h p.i., Odyssey CLx, excitation 700 nm, n=1. The method, then:
as §1

The test system of another series is PC-3 (PSMA-) tumor. The series can be described thus: Optical imaging of dissected tumor, PC-3. It counts as in vivo, BALB/c nu/nu mice. The following applies: 0.5 nmol 68Ga-labeled BP-2, 2 h p.i., Odyssey CLx, excitation 700 nm, n=1. On the procedure:
as §1

By tissue uptake is commonly meant the percentage of the injected dose found per gram of tissue. In the case of `CN(CC(=O)NC[C@H]1CC[C@H](C(=O)N[C@H](Cc2ccc3ccccc3c2)C(=O)NCCCC[C@@H](NC(=O)N[C@H](CCC(=O)O)C(=O)O)C(=O)O)CC1)C(=O)CN(C)C(=O)CN(C)C(=O)CN(C)C(=O)CN(C)C(=O)CN(C)C(=O)CN(C)C(=O)CN(C)C(=O)CN(C)C(=O)CN(C)C(=O)C(CCCCNC(=O)CN1CCN(CC(=O)O)CCN(CC(=O)O)CCN(CC(=O)O)CC1)NC(=O)CN(C)C(=O)CN(C)C(=O)CN(C)C(=O)CN(C)C(=O)CN(C)C(=O)CCNC(=O)CCCCC[N+]1=C(/C=C/C=C/C=C2/N(C)c3ccc(S(=O)(=O)[O-])cc3C2(C)C)C(C)(C)c2cc(S(=O)(=O)O)ccc21` (single isomer, unassigned) [BP-2, Glu-urea-Lys-2-Nal-Chx-Sar10-Lys(DOTA)-Sar5-bAla-sulfoCy5], in the series with PSMA+-cells (LNCaP), the “Specifically cell surface bound” value stood at 1.2 ± 0.8 % AR/10^5 cells and the Specifically internalized amounted to 0.5 ± 0.4 % AR/10^5 cells. Moreover, the tissue uptake at 2 h in the series “in vivo” (Kidney) came to 4.61 ± 0.45 %ID/g. For the same molecule, the “tumor uptake at 2 h p.i. as compared to 1 h p.i.” value in the series on LNCaP xenograft tumors is given as “differs not significantly”. Also, in the series on LNCaP tumor, the “pharmacokinetic properties / excretion profile compared to PSMA-617” value is listed as “accelerated excretion profile” and the “tumor targeting properties compared to PSMA-617” value is “comparable to the parental reference PSMA-617”. Moreover, the “fluorescence signal in PSMA+-tumor” value with LNCaP (PSMA+) tumor is on record as “high fluorescence signal”. In addition, in the series on PC-3 (PSMA-) tumor, the “fluorescence signal in PSMA−-tumor” value is on record as “negligible fluorescence signal”.
For the molecule `CN(CC(=O)NC[C@H]1CC[C@H](C(=O)N[C@H](Cc2ccc3ccccc3c2)C(=O)NCCCC[C@@H](NC(=O)N[C@H](CCC(=O)O)C(=O)O)C(=O)O)CC1)C(=O)CN(C)C(=O)CN(C)C(=O)CN(C)C(=O)CN(C)C(=O)CN(C)C(=O)CN(C)C(=O)CN(C)C(=O)CN(C)C(=O)CN(C)C(=O)C(CCCCNC(=O)CN1CCN(CC(=O)O)CCN(CC(=O)O)CCN(CC(=O)O)CC1)NC(=O)CN(C)C(=O)CN(C)C(=O)CN(C)C(=O)CN(C)C(=O)CN(C)C(=O)CCNC(=O)CCCCC[N+]1=C(/C=C/C=C/C=C2/N(C)c3ccc(S(=O)(=O)[O-])cc3C2(C)C)C(C)(C)c2cc(S(=O)(=O)O)ccc21` (single isomer, unassigned) [^177Lu-BP-2, metal not drawn], the tissue uptake at 1 h was found to be 0.16 ± 0.01 %ID/g in the series “in vivo” (Blood); 0.02 ± 0.005 %ID/g in “in vivo” (Brain); 0.07 ± 0.01 %ID/g in “in vivo” (Heart); 0.1 ± 0.06 %ID/g in the series “in vivo” (Intestine); 1.18 ± 0.61 %ID/g in “in vivo” (Liver); 0.27 ± 0.01 %ID/g in “in vivo” (Lung). For the same molecule, the tissue uptake at 1 h in “in vivo” (Muscle) stood at 0.03 ± 0.01 %ID/g; in the series “in vivo” (Spleen), 1.65 ± 0.86 %ID/g; in “in vivo” (Tumor LNCaP), 5.38 ± 2.03 %ID/g. Besides, the tissue uptake at 2 h in “in vivo” (Blood) was 0.05 ± 0.01 %ID/g; in the series “in vivo” (Brain), 0.01 ± 0.003 %ID/g; in “in vivo” (Heart) it was 0.03 ± 0.003 %ID/g; in the series “in vivo” (Intestine) it was 0.03 ± 0.004 %ID/g; in “in vivo” (Liver), 1.25 ± 0.13 %ID/g; in the series “in vivo” (Muscle), 0.06 ± 0.07 %ID/g. The tissue uptake at 2 h in “in vivo” (Spleen) was 1.37 ± 0.1 %ID/g; in the series “in vivo” (Tumor), 4.23 ± 0.19 %ID/g. In the series on LNCaP xenograft tumors (male, BALB/c nu/nu, iv, 0.06 nmol, 2 h), the “Organ distribution, Kidney” value stood at 4.61 ± 0.45 % ID/g.
